# Binding of CDR-mutated scFvs to a peptide of the spike HR2 region

The measurements come from Engelhart et al. 2022 (doi:10.1038/s41597-022-01779-4) through the FLAb antibody collection.

Target: peptide PDVDLGDISGINAS, taken from heptad repeat 2 (HR2) of SARS-CoV-2 spike.

Each scFv is VH, a (GGGGS)3 linker, VL, as in the parent Ab-14, and differs from it in the CDRs of the light chain only.
VH: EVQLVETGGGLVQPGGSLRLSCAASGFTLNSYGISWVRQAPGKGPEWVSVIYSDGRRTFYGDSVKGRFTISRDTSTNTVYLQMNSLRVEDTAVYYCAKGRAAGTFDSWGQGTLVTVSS
VL: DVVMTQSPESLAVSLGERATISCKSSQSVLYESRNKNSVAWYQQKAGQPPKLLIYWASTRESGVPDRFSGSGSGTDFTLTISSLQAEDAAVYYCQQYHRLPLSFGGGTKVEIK

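In library AAYL50, one, two or three CDR residues were substituted; doubles and triples were drawn at random. Affinity was read by AlphaSeq, a pooled yeast mating assay with surface-displayed partners. The frequency of each diploid, read from paired DNA barcodes, reflects how well the two displayed proteins bind. A regression on co-assayed BCL2-family reference pairs converts the normalised counts of each replicate to an apparent Kd. The assay was run in three technical replicates.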

The parent's light chain CDRs are KSSQSVLYESRNKNSVA, WASTRES, QQYHRLPLS; each variant's own CDRs replace them letter for letter.
All variants listed here change K24 of the VL, counted from its first residue.
Values are apparent Kd, the geometric mean of the replicates that gave a signal; lower means stronger binding.
A pair that was not seen in any replicate is written "nd"; this usually means weak binding, but a binder can also be missed.

* LSNQSVLYESRNKNSVA, WASTREI, QQYHRLPLS: 98 nM (3 of 3 replicates; controls 0 of 9)
* DSSQEVLYESRNKNSVA, WASTRES, QQYHRPPLS: 8.2 µM (2 of 3 replicates; controls 2 of 9)
* WSSQSVLYESRNKNSVA, WASTRES, QQQHRLPLS: 120 nM (3 of 3 replicates; controls 0 of 9)
* ESSQSVSYESRNKNSVA, WASTRES, QQYLRLPLS: 710 nM (3 of 3 replicates; controls 1 of 9)
* WSSHSVLYESRNKNSVA, WASTRES, QQYHRLTLS: 33 µM (2 of 3 replicates; controls 0 of 9)
* CSDQSVLYESRNINSVA, WASTRES, QQYHRLPLS: 62 nM (3 of 3 replicates; controls 1 of 9)
* NSSQSVLYEHRNKNSVA, WASTRES, QQYHRLLLS: 54 nM (3 of 3 replicates; controls 1 of 9)
* NSSQSVLYESWNKNSVA, WASTRES, QQYHRLPLE: 9.8 nM (3 of 3 replicates; controls 1 of 9)
* MSSQSVLYEYRNKNSVA, WASTRES, QQYHRLPSS: nd (0 of 3 replicates; controls 0 of 9)
* LSSQSVLYESRNKNSVA, WASRRET, QQYHRLPLS: nd (0 of 3 replicates; controls 1 of 9)
* WSSQSVLYEQRNKNSVA, WASTREC, QQYHRLPLS: nd (0 of 3 replicates; controls 3 of 9)
* TSSQSVLYESRNKNSVA, WLSTRES, QWYHRLPLS: 39 µM (1 of 3 replicates; controls 0 of 9)
* TSSQSVLYESRNKNSVW, WASTRES, QQYPRLPLS: nd (0 of 3 replicates; controls 0 of 9)
* YSSQSVLYESANKNSVA, WASTRET, QQYHRLPLS: 190 nM (3 of 3 replicates; controls 1 of 9)
* QSSQSVLYESVFKNSVA, WASTRES, QQYHRLPLS: 70 nM (3 of 3 replicates; controls 0 of 9)
* FSSQSVLYESRNKNSVA, WASTRES, QQYIMLPLS: 1.8 µM (1 of 3 replicates; controls 1 of 9)
* YSSQSVLYESRNKNSVA, QASTRES, QQYHRRPLS: 25 nM (3 of 3 replicates; controls 0 of 9)
* LSSQSVLYESRNKQSLA, WASTRES, QQYHRLPLS: nd (0 of 3 replicates; controls 1 of 9)
* CSSQSVLYESMNKNSVA, WASTRES, QQYHLLPLS: 86 nM (3 of 3 replicates; controls 2 of 9)
* ESSQSVLYESRNKFSVA, WASTREH, QQYHRLPLS: 6.6 µM (1 of 3 replicates; controls 1 of 9)
* ASSQSVLYESRNKWSVA, WASTRES, QQYHQLPLS: 410 nM (3 of 3 replicates; controls 2 of 9)
* MSSQSVLYESRNKNSVA, WASTRES, QQYHMLPTS: 260 nM (3 of 3 replicates; controls 1 of 9)
* WSSQSVLYESRNKNSVA, WASTRMS, QQMHRLPLS: 29 µM (3 of 3 replicates; controls 5 of 9)
* MSSQSVLYEMRNKNSVA, WASTRES, QQYHRLPLQ: 69 nM (3 of 3 replicates; controls 1 of 9)
* DSMQSVLYESRNKNSVA, WASTRES, QQWHRLPLS: nd (0 of 3 replicates; controls 4 of 9)
* RSSQSVLYESRNKNSVA, WASTRES, IQYHRLPLS: nd (0 of 3 replicates; controls 0 of 9)
* MSSQSVLYESRNKNIVA, WASTRES, QQLHRLPLS: nd (0 of 3 replicates; controls 0 of 9)
* SSSQSVLYESPNKNSVA, WASTRES, QQYHRLPLS: 55 nM (3 of 3 replicates; controls 2 of 9)
* FSVQSVLYESRNKNSVA, WMSTRES, QQYHRLPLS: nd (0 of 3 replicates; controls 1 of 9)
* ASSQSVFYESRNKNSVA, WASTRES, QQYHRLPLL: 330 nM (3 of 3 replicates; controls 4 of 9)
* SSSQSVSYESRNKNSVA, WASTRES, QQYIRLPLS: 27 nM (3 of 3 replicates; controls 1 of 9)
* DSSQSVLYESRNPNSVA, WAFTRES, QQYHRLPLS: nd (0 of 3 replicates; controls 0 of 9)
* WSSQSVLYESRNKNSVA, WASTREW, QQYYRLPLS: nd (0 of 3 replicates; controls 0 of 9)

The opening 2 entries, copied out:

- LSNQSVLYESRNKNSVA, WASTREI, QQYHRLPLS: 98 nM (3 of 3 replicates; controls 0 of 9)
- DSSQEVLYESRNKNSVA, WASTRES, QQYHRPPLS: 8.2 µM (2 of 3 replicates; controls 2 of 9)

Three control strains display no target. For library AAYL50, 18% of the pairings with them gave a signal, with a median of 15 µM and one signal in twenty below 970 nM, so weak values seen in few replicates may be background. Also given: how often the same scFv was detected with the empty control strains.